Laboratory results published in US20250206724A1, “SUBSTITUTED 3-AMINO INDAZOLE DERIVATIVES AS KINASE INHIBITORS” (NERVIANO MEDICAL SCIENCES S.R.L., priority 2022, published 2025).

Amino acid sequences for entries named in this document (tags omitted). Residues count along the entry.
UniProt Q9UQ88, 346-783 limits assumed: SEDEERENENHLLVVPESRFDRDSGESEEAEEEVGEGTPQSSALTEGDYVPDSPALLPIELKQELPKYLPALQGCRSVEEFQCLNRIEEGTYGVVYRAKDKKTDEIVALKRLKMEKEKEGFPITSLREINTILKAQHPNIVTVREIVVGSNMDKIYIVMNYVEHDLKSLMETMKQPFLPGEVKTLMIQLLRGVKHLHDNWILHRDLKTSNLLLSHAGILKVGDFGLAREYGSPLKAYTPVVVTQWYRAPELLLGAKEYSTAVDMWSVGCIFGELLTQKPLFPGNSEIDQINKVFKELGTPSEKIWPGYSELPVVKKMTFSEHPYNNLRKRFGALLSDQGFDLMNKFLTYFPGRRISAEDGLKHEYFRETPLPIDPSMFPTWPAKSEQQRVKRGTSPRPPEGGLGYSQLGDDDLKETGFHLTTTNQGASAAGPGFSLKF

Target: CDK11A (Homo sapiens, UniProt Q9UQ88)
Settings: displacement of SNS-032-Atto590 probe (0.002 μM) from CDK11A-p58 (0.032 uM), fluorescence polarization
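Note: compound preincubated 30 min with CDK11A-p58, then probe added and polarization (mP) read 15 min later, 0% displacement is probe plus enzyme, 100% is probe alone.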

N#Cc1ccc(Cl)c(-c2ccc3[nH]nc(NC(=O)C4CC(NCCF)C4)c3c2)c1 (stereo not shown)
DC50: 0.061 µM
